# scFv variants of Ab-95 (light chain) against a SARS-CoV-2 spike peptide

Binding partner: SARS-CoV-2 spike HR2 peptide, sequence PDVDLGDISGINAS.

Parent: Ab-95, a human scFv built as VH, a 15-residue (Gly4Ser)3 linker, VL. Only the CDRs of the light chain vary.
VH: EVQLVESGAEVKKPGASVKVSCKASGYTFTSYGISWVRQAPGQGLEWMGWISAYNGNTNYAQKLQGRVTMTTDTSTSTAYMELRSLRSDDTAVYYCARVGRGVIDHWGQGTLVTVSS
VL: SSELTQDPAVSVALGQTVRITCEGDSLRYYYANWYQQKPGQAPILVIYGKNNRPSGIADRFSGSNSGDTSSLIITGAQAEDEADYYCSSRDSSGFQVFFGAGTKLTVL

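The starting antibody came from a phage panning campaign against this peptide. AAYL52 was designed without a model: most single CDR substitutions and a random sample of double and triple ones. The scFvs were displayed on barcoded MATa yeast, the peptide on MATalpha yeast. Mating (16 h, 30 °C) was followed by selection of diploids and sequencing of their barcodes. Read counts were normalised to the haploid input and turned into Kd by a linear fit to BCL2-family pairs of known affinity, for each replicate. Each pool was mated in three replicate cultures.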

Variants are written as CDR1, CDR2 and CDR3 of the light chain (limits as in the source). Parent: EGDSLRYYYAN, GKNNRPS, SSRDSSGFQVF. Every variant below is changed at R53 of the VL (sequential numbering). Affinities are written as log10 Kd with Kd in nM; a lower number is a better binder. Replicates are averaged; those with no signal do not enter the mean. Where no diploid with the target was found in any replicate, the entry reads "no signal": below detection, most likely a poor binder, though not proof of it. Entries are sorted by rising average, undetected variants last. Three control strains display no target. For library AAYL52, 28% of the pairings with them gave a signal, with a median of 3.91 and one signal in twenty below 2.90, so weak values seen in few replicates may be background. The control count says in how many pairings with the empty strains this scFv gave a signal.

| CDR-L1 | CDR-L2 | CDR-L3 | mean log10 Kd (nM) | replicates with signal | signal with controls |
|---|---|---|---|---|---|
| EGDSLRYYNAN | GKNNQPS | SSRDSSGFQAF | 2.15 | 3 of 3 | 4 of 9 |
| EGDSLRYYKAN | GKNNLPS | SSRDSSGFQVF | 2.36 | 3 of 3 | 2 of 9 |
| EGDSLRYRYAN | GKNNLPS | SSRDSSGFQHF | 2.44 | 3 of 3 | 4 of 9 |
| EGDSLRKYYAN | GKNNKPS | SSRDSSGFQVF | 2.56 | 3 of 3 | 6 of 9 |
| EGDSLEYYYAN | GKNNKPS | SSRDCSGFQVF | 2.77 | 3 of 3 | 2 of 9 |
| EGDSLDYYYAN | GKNNQPS | SSRDSSGFQVF | 3.04 | 1 of 3 | 1 of 9 |
| TGDSLRYYYAN | GKNNEPS | SSRDSSGLQVF | 3.05 | 1 of 3 | 0 of 9 |
| EGDSLRYYYAN | GKNNNLS | VSRDSSGFQVF | 3.05 | 2 of 3 | 3 of 9 |
| EGDSLRYYDAN | GKNNWPS | SSRDSSGLQVF | 3.12 | 3 of 3 | 6 of 9 |
| EGDSLRYYYAP | GKNNIPS | SSRDSSGFQVF | 3.17 | 3 of 3 | 4 of 9 |
| EGDSLSYYYAM | GKNNWPS | SSRDSSGFQVF | 3.19 | 1 of 3 | 2 of 9 |
| EDDSLRYYYAN | GKNNFPS | SSRDSSGFQNF | 3.19 | 1 of 3 | 3 of 9 |
| EGDSLRYYYAN | GKNILPS | SSWDSSGFQVF | 3.22 | 3 of 3 | 3 of 9 |
| EGDSLRYYYAN | QKNNFPS | SSRRSSGFQVF | 3.24 | 2 of 3 | 1 of 9 |
| EGDSLDYYYAN | GKNNHPS | SSRDSSGEQVF | 3.35 | 1 of 3 | 2 of 9 |
| EGDSLRSYYAN | GKNWQPS | SSRDSSGFQVF | 3.58 | 1 of 3 | 1 of 9 |
| EGDSLRYYYHN | GKNNKPS | SSRDSSGEQVF | 3.60 | 3 of 3 | 1 of 9 |
| EGDSLRYYYAN | GKANIMS | SSRDSSGFQVF | 3.61 | 1 of 3 | 2 of 9 |
| EGCSLRYYYAN | GKNNWPS | HSRDSSGFQVF | 3.63 | 1 of 3 | 1 of 9 |
| EGDSLRYYYAN | GPNNDPS | SSRDSQGFQVF | 3.63 | 3 of 3 | 5 of 9 |
| EGDSWRYYYAN | IKNNPPS | SSRDSSGFQVF | 3.63 | 1 of 3 | 4 of 9 |
| ERDSLRYYYAN | GKNNSPT | SSRDSSGFQVF | 3.67 | 2 of 3 | 1 of 9 |
| EGDSLRYGYAN | GKNNNPS | SSSDSSGFQVF | 3.71 | 1 of 3 | 2 of 9 |
| EGDSLRYYYNR | GKNNFPS | SSRDSSGFQVF | 3.73 | 3 of 3 | 5 of 9 |
| EGDSLRYYYAN | GKNNDPS | SSRDSQGFQHF | 3.75 | 3 of 3 | 2 of 9 |
| EGDSLRYYYAN | GKENEPS | SSRDSSGFYVF | 3.92 | 3 of 3 | 5 of 9 |
| EGDCLRYYYAN | GKHNIPS | SSRDSSGFQVF | 3.94 | 3 of 3 | 6 of 9 |
| ELDSLRYYYCN | GKNNGPS | SSRDSSGFQVF | 3.97 | 1 of 3 | 3 of 9 |
| EGDSNRYYYAN | QKNNTPS | SSRDSSGFQVF | 4.01 | 3 of 3 | 4 of 9 |
| LGDSLRYYYAN | GKNNMPS | SRRDSSGFQVF | 4.01 | 3 of 3 | 3 of 9 |
| EGDSLRYYYAN | GKEKFPS | SSRDSSGFQVF | 4.02 | 2 of 3 | 2 of 9 |
| EGDSLRYYYAN | GKNNTPR | SSRDSVGFQVF | 4.05 | 1 of 3 | 4 of 9 |
| EGDSLRYVYAN | GKNNDPE | SSRDSSGFQVF | 4.08 | 1 of 3 | 5 of 9 |
| EGDHLRYYYKN | GKNNPPS | SSRDSSGFQVF | 4.25 | 1 of 3 | 3 of 9 |
| EKDSLRYYYAN | GKNNTPS | SSRDWSGFQVF | 4.27 | 2 of 3 | 6 of 9 |
| EGCSPRYYYAN | GKNNDPS | SSRDSSGFQVF | 4.28 | 1 of 3 | 2 of 9 |
| EGDHLRYYYAN | GKNNTPS | SSRDSSGDQVF | 4.28 | 2 of 3 | 2 of 9 |
| EGDSLRYYYAN | GWNNEPS | SSRVSSGFQVF | 4.34 | 1 of 3 | 4 of 9 |
| EGDSLRYYYAN | GKNNCPS | SSRDSSGAQFF | 4.54 | 2 of 3 | 0 of 9 |
| EGDSLRYYYAN | GTNNYPS | SSRDNSGFQVF | 4.61 | 1 of 3 | 4 of 9 |
| EGDQSRYYYAN | GKNNEPS | SSRDSSGFQVF | 4.74 | 2 of 3 | 2 of 9 |
| EGDSLRYYYAN | GKNNCPS | QSRDSSGGQVF | 4.81 | 1 of 3 | 2 of 9 |
| EGDSLRYYYAN | GKNNMPY | CSRDSSGFQVF | 5.09 | 1 of 3 | 3 of 9 |
| EGDSLRGYYAN | GKNNWPS | SSRDSSGFQVF | 5.34 | 1 of 3 | 1 of 9 |
| EGYSLRYYYLN | GKNNHPS | SSRDSSGFQVF | 5.45 | 2 of 3 | 4 of 9 |
| EMDSLRYYYAT | GKNNYPS | SSRDSSGFQVF | 5.62 | 1 of 3 | 1 of 9 |
| EGDSLRYYYAN | SKNNLPS | SSRDSHGFQVF | no signal | 0 of 3 | 3 of 9 |
| EGDSLRYYYHN | GKNNEPI | SSRDSSGFQVF | no signal | 0 of 3 | 2 of 9 |
| EGDSLRYYYAN | MKNNWPE | SSRDSSGFQVF | no signal | 0 of 3 | 0 of 9 |
| EGDSARYYFAN | GKNNVPS | SSRDSSGFQVF | no signal | 0 of 3 | 1 of 9 |
| EGDSLRYYYAN | EKNNLPS | SSRDSSGFQVF | no signal | 0 of 3 | 2 of 9 |
| EGDSLRYYYMN | GKNNQPS | SSRDTSGFQVF | no signal | 0 of 3 | 1 of 9 |
| EGDSLRYYYAN | GKNNMGS | SSRDSSGFQVA | no signal | 0 of 3 | 1 of 9 |
| EGDSLRYYYAM | GKDNQPS | SSRDSSGFQVF | no signal | 0 of 3 | 1 of 9 |
| EGDSSRYYYAN | GKNNMPS | SSRDSSGFQRF | no signal | 0 of 3 | 3 of 9 |
| EGDSLRYYYAN | GKNNSPS | SSRVDSGFQVF | no signal | 0 of 3 | 2 of 9 |
| EGDSLRYYYAN | GKPNLPS | SSRDSSGFQVY | no signal | 0 of 3 | 2 of 9 |

The measurements come from Engelhart et al. 2022 (doi:10.1038/s41597-022-01779-4) through the FLAb antibody collection.